Experimental data as given in patent publication US8404670B2 (Sunovion Pharmaceuticals Inc., priority 2009, dated 2013).

The chains behind the UniProt entries cited, without tags or fusion partners.
UniProt Q9Y5N1, whole entry: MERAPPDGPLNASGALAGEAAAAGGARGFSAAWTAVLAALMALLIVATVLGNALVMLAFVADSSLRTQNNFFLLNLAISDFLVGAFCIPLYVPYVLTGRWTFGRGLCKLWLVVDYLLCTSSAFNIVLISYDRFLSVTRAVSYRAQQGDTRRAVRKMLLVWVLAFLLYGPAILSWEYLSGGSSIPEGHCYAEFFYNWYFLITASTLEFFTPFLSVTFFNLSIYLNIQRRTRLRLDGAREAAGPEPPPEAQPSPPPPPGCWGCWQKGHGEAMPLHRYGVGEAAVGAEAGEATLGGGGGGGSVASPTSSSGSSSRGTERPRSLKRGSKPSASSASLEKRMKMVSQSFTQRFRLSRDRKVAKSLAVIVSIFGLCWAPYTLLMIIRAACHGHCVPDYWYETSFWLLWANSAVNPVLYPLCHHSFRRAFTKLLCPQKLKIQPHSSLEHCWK

Biological target: human histamine H3 receptor (Homo sapiens, UniProt Q9Y5N1)
Assay: H3 GTPγS assay (SPA method), histamine H3 in vitro assay
Conditions: read-out: Potency (functional potency as indicated by IC50); GTPγ[35S] binding to membranes of cells expressing human H3; antagonist mode with R-γ-Me-Histamine at EC80 (30 nM); in one embodiment HCl salts tested; tested form: HCl
Procedure: H3 GTPγS assay (SPA method) was performed at EuroScreen (Belgium, ES-392-C) using conventional methods. Briefly, cells expressing the human histamine H3 receptor were homogenized in 15 mM Tris-HCl pH 7.5, 2 mM MgCl2, 0.3 mM EDTA, and 1 mM EGTA. Membranes were washed twice in the above tris buffer, collected by centrifugation (40,000×g, 25 min), and re-suspended in 75 mM Tris-HCl pH 7.5, 12.5 mM MgCl2, 0.3 mM EDTA, 1 mM EGTA, and 250 mM sucrose. Membranes were frozen in liquid nitrogen until use. On the day of the assay, membranes were thawed and diluted in assay buffer (20 mM HEPES pH 7.4, 100 mM NaCl, 10 μg/ml saponin, 1 mM MgCl2) to give 500 μg/ml and mixed (v/v) with GDP in assay buffer for a final GDP concentration of 10 μM and incubated on ice for at least 15 min. PVT-WGA beads (Amersham, RPNQ001) were diluted in assay buffer at 50 mg/mL and mixed with GTPγ[^35S] […] The reaction was started by adding 50 μL of test compound, 20 μL of the membranes:GDP mix, 10 μL of buffer, and 20 μL of the GTPγ[^35S]:beads mix in a 96 well plate Optiplate™ (PerkinElmer, 6005299) covered with topseal (TopCount™, PerkinElmer), mixed with an orbital shaker for 2 min, incubated for 1 hour at room temperature, centrifuged for 10 min at 2000 rpm, incubated for 1 h at room temperature, and counted for 1 min in a TopCount™ reader (PerkinElmer). […]

SMILES: Cc1nccn1-c1ccc2c(c1)nc1n2CCN(C2CCC2)CC1
- IC50: < 10 nM
